What was measured:
[1] = species on record: Homo sapiens; assay: Selectivity ratio of Ki for human CDK5/p25 to Ki for human CDK2/Cyclin E1
[2] = species on record: Homo sapiens; assay: Selectivity ratio of Ki for human CDK7/Cyclin H/MAT1 to Ki for human CDK2/Cyclin E1
[3] = species on record: Homo sapiens; assay: Selectivity ratio of Ki for human CDK9/CyclinT1 to Ki for human CDK2/Cyclin E1

Row | Ratio Ki [1] | Ratio Ki [2] | Ratio Ki [3] | Structure (SMILES)
1 | 15.8 | 54.7 | 12.8 | CC(C)c1cnn2c3nc(nc12)N(CC1CNC1)CCCCCOc1cc(S(C)(=O)=O)ccc1CN3
2 | 10 | 35 | 20 | CC(C)c1cnn2c3nc(nc12)N(CC1CNC1)CCCCCOc1ccccc1CN3

Source: ChEMBL document CHEMBL5550116, “Discovery of novel macrocyclic derivatives as potent and selective cyclin-dependent kinase 2 inhibitors” (Bioorg Med Chem, 2024)
